Experimental findings from US20190040083A1 (priority 2016, published 2019) are described below.

Converted amounts (≈) assume the structure as drawn.

The subject of the test is P. aeruginosa NCTC 13437. Briefly: microbe, parasite or virus in culture. The following applies: Pseudomonas aeruginosa, NCTC13437.

In the case of `O=C1COc2ccc(N3C(=O)O[C@H]4CN(CCCn5c(=O)ccc6ccccc65)CC[C@H]43)nc2N1` (relative stereo) [Compound 2, rel-1-{3-[(3aR*,7aS*)-2-oxo-1-{3-oxo-2H,3H,4H-pyrido[3,2-b][1,4]oxazin-6-yl}-octahydro-[1,3]oxazolo[5,4-c]pyridin-5-yl]propyl}-1,2-dihydroquinolin-2-one], the MIC was 10 to 100 µg/mL (≈ 21 to 210 µM).

The compound `N#Cc1ccc2ccc(=O)n(CCCN3CC[C@@H]4[C@H](C3)OC(=O)N4c3ccc4c(n3)NC(=O)CO4)c2c1` (relative stereo) [Compound 6, rel-1-{3-[(3aR*,7aS*)-2-oxo-1-{3-oxo-2H,3H,4H-pyrido[3,2-b][1,4]oxazin-6-yl}-octahydro-[1,3]oxazolo[5,4-c]pyridin-5-yl]propyl}-2-oxo-1,2-dihydroquinoline-7-carbonitrile] had an MIC of 10 to 100 µg/mL (≈ 20 to 200 µM).

The compound `COc1ccc2ccc(=O)n(CCCN3CC[C@H]4[C@@H](C3)OC(=O)N4c3ccc4c(n3)NC(=O)CO4)c2n1` (relative stereo) [Compound 7, rel-1-{3-[(3aR*,7aS*)-2-oxo-1-{3-oxo-2H,3H,4H-pyrido[3,2-b][1,4]oxazin-6-yl}-octahydro-[1,3]oxazolo[5,4-c]pyridin-5-yl]propyl}-7-methoxy-1,2-dihydro-1,8-naphthyridin-2-one] showed an MIC of 1 to 10 µg/mL (≈ 1.97 to 19.7 µM).

`COc1ccc2ccc(=O)n(CCCN3CC[C@@H]4[C@@H](C3)OC(=O)N4c3ccc4c(n3)NC(=O)CO4)c2n1` (relative stereo) [Compound 9, rel-1-{3-[(3aR*,7aR*)-2-oxo-1-{3-oxo-2H,3H,4H-pyrido[3,2-b][1,4]oxazin-6-yl}-octahydro-[1,3]oxazolo[5,4-c]pyridin-5-yl]propyl}-7-methoxy-1,2-dihydro-1,8-naphthyridin-2-one] yielded an MIC of 1 to 10 µg/mL (≈ 1.97 to 19.7 µM).

Take `N#Cc1ccc2ccc(=O)n(CCCN3CC[C@@H]4[C@@H](C3)OC(=O)N4c3ccc4c(n3)NC(=O)CO4)c2c1` (relative stereo) [Compound 10, rel-1-{3-[(3aR*,7aR*)-2-oxo-1-{3-oxo-2H,3H,4H-pyrido[3,2-b][1,4]oxazin-6-yl}-octahydro-[1,3]oxazolo[5,4-c]pyridin-5-yl]propyl}-2-oxo-1,2-dihydroquinoline-7-carbonitrile]: the MIC was in the range of 1 to 10 µg/mL (≈ 2 to 20 µM).
